Test results published in US6548667B2, “Sulfonamide derivative as a matrix metalloproteinase inhibitor” (Samsung Electronics Co. Ltd., priority 2000, dated 2003).

Protein sequences, listed by entry. Tags and fused reporters are not part of them. Residues count along the entry.
UniProt P08253, 110-660 limits assumed: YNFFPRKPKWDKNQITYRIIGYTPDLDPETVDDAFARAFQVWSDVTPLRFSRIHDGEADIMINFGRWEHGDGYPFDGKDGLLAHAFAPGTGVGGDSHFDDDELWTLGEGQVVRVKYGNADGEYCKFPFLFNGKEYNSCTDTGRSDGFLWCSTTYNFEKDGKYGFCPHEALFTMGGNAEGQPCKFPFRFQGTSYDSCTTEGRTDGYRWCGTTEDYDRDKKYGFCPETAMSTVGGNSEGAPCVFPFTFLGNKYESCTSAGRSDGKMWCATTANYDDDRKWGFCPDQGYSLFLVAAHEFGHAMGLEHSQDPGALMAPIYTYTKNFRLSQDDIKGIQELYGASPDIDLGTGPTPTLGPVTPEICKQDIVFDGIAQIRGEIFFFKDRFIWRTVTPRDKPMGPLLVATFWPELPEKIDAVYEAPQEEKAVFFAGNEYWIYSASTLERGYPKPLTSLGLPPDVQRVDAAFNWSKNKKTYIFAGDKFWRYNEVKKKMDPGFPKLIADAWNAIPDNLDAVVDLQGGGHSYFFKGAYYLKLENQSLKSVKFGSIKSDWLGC
UniProt P14780, 107-707 limits assumed: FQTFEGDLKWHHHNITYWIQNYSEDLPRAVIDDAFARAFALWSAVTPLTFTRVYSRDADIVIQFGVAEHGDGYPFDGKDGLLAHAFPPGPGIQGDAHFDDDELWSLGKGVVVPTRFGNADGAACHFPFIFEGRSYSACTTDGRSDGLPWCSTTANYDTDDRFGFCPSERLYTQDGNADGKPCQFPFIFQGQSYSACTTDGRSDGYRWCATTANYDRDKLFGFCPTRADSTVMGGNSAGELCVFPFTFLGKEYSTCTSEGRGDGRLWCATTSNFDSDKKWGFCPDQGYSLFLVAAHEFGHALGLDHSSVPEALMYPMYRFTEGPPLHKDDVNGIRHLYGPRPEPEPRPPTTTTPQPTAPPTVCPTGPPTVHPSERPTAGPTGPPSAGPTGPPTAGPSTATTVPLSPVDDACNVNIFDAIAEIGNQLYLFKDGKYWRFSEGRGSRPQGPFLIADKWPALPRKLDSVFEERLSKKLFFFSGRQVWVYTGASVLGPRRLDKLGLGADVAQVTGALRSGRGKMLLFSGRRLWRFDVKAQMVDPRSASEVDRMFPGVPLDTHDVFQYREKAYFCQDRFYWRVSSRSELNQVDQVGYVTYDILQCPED

Columns and labels:
[1] = molecular target: gelatinase A (MMP-2) (Homo sapiens, UniProt P08253); test: In vitro inhibition on gelatinase A (MMP-2), fluorescent synthetic peptide substrate; conditions: read-out: IC50 (nM) MMP-2; Table 1
Source text: In vitro Inhibition on Gelatinase A (MMP-2)
(§1) The present test was accomplished by measuring the fluorescence intensity of a fluorescent material (7-methoxycoumarin-4-acetyl-Pro—Leu—Gly) produced from the cleavage of a fluorescent synthetic peptide substrate ((7-methoxycoumarin-4-acetyl-Pro—Leu—Gly—Leu-β-(2,4-dinitrophenylamino) Ala—Ala—Arg—NH2 (Sigma Chem. Co. U.S.A.)) by gelatinase A (Boehringer Manneheim cat# 1782916, from human fibrosarcoma cells).
(§2) Enzymatic reaction employing a fluorescent synthetic substrate was accomplished by putting test compounds, TNBC buffer solution (25 mM Tris-HCl, pH 7.5, 0.1M NaCl, 0.01% Brij-35, 5 mM CaCl2), gelatinase A (final concentration in well: 4.17 nM) activated with 1 mM of APMA (aminophenylmercuric acetate) for 30 minutes at 37° C. just before the enzymatic reaction and the substrate, fluorescent synthetic peptide (final concentration in well: 9.15 uM) in 96 well plate and then reacting for 30 minutes at 37° C., and the fluorescence intensity was measured at excitation 328 nm and emission 393 nm by spectrofluorimeter (Fmax(molecular device)). The inhibition rate (%) was calculated from the following equation: [formula]
A represents fluorescence intensity before the reaction with an inhibitor;
B represents fluorescence intensity after the reaction with an inhibitor; […]
D represents fluorescence intensity after the reaction without an inhibitor.

[2] = molecular target: gelatinase B (MMP-9) (Homo sapiens, UniProt P14780); test: In vitro inhibition on gelatinase B (MMP-9), fluorescent synthetic peptide substrate; conditions: read-out: IC50 (nM) MMP-9; Table 1
Source text: as §1, §2
In vitro Inhibition on Gelatinase B (MMP-9) […]

IC50 [1]: 40100 nM | IC50 [2]: 290000 nM
Compound: CCCCCCSc1nc2ccc(S(=O)(=O)NC(Cc3ccccc3)P(=O)(O)O)cc2s1 (centres unmarked)
